# Reference: US20080132484A1, “Method for Identifying Inhibitors Using a Homology Model of Polo-Like Kinase 1” (CYCLACEL LIMITED, priority 2003, published 2008)
# Target: CDK2 (Homo sapiens, UniProt P24941)
# Assay: CDK2 inhibition
# Format: biochemical
# Details: Table 12
substance,measurement,value
Purvalanol A,IC50,0.9 ± 2 nM
